Earlier results as cited in US20220117948A1, “TRITERPENOID ANTIFUNGALS FOR THE TREATMENT OF FUNGAL OSTEO-ARTICULAR INFECTIONS” (Scynexis, Inc., priority 2019, published 2022).
Read-outs that look alike come from different tables or passages of the source.

Key:
[1] = rabbits; cited from earlier work
[2] = humans; cited from earlier work

## 18F-fluconazole
[1]
  concentration in bone as % of the plasma concentration: ~100%
[2]
  concentration in bone as % of the plasma concentration: approximately 33%
